# Laboratory results as given in patent US6843784B2, “Triclosan and silver compound containing medical devices” (priority 1999, dated 2005).
# Conditions: Silver oxide 10 μmole
substance,measurement,setting,value
silver oxide,Solubility,"Ammonia 10 μmole, TC 0 μmole",Not soluble
same,Solubility,"Ammonia 10 μmole, TC 10 μmole",>90% Soluble
same,Solubility,"Ammonia 10 μmole, TC 10 μmole, listed as silver oxide",more than 90%
same,Solubility,"Ammonia 10 μmole, TC 20 μmole",Soluble
same,Solubility,"Ammonia 10 μmole, TC 20 μmole, listed as silver oxide",completely solubilize
same,Solubility,"Ammonia 100 μmole, TC 0 μmole",Soluble

# Where two headings read alike, the source gives them in different places.
